The subject of one data set is zebrafish. Description: Kaplan-Meier survival curve of carcinogen-treated zebrafish. Particulars: MNNG 2 ppm, n=40 for each group, FIG. 6(E).
Another data set concerns Wild-type fish. The data set is described as follows: Carcinogenesis assay, wild-type fish exposed to carcinogens.
Where [1] appears, read: wild-type fish, 24-hour exposure, MNNG 0.5, 1.0 and 2.0 ppm, DMBA 2.5, 5.0 and 10.0 ppm.

For the substance N-methyl-N′-nitro-Nitrosoguanidine, the “life span versus control” value in the data set on zebrafish is on record as “decreased lifespan”. Besides, the “tumor histology after exposure” value with Wild-type fish (MNNG 5 ppm, sacrificed after three months, FIGS. 17 and 18) is “a tumor in liver (17(B)-(C)) and testis”. Moreover, the “tumor seen in tissue sections (histology)” value in the data set with Wild-type fish (carcinogen-treated fish, FIG. 6) was “germ-cell tumor”. Besides, in the data set with Wild-type fish (wild-type fish), the tumor types produced result is “more mesenchymal and testicular tumors”. In addition, in the data set with Wild-type fish (setting [1]), the “fish that developed tumors” value is listed as 7.8% and the “fish that developed tumors / fish treated” value is 10/128.

For the origin of these results see US6943025B2, “Method for identifying genes involved in cell proliferation” (Children's Medical Center Corporation, priority 2001, dated 2005).
